For 1 compound, IC50 results are on record in paper PMC2766802 (Analytical biochemistry, 2009).

By UniProt entry, the sequences of proteins in these tests, tags left out. Where a name states a change or a piece, a line headed by the entry shows the natural chain unless it says otherwise.
UniProt Q12809: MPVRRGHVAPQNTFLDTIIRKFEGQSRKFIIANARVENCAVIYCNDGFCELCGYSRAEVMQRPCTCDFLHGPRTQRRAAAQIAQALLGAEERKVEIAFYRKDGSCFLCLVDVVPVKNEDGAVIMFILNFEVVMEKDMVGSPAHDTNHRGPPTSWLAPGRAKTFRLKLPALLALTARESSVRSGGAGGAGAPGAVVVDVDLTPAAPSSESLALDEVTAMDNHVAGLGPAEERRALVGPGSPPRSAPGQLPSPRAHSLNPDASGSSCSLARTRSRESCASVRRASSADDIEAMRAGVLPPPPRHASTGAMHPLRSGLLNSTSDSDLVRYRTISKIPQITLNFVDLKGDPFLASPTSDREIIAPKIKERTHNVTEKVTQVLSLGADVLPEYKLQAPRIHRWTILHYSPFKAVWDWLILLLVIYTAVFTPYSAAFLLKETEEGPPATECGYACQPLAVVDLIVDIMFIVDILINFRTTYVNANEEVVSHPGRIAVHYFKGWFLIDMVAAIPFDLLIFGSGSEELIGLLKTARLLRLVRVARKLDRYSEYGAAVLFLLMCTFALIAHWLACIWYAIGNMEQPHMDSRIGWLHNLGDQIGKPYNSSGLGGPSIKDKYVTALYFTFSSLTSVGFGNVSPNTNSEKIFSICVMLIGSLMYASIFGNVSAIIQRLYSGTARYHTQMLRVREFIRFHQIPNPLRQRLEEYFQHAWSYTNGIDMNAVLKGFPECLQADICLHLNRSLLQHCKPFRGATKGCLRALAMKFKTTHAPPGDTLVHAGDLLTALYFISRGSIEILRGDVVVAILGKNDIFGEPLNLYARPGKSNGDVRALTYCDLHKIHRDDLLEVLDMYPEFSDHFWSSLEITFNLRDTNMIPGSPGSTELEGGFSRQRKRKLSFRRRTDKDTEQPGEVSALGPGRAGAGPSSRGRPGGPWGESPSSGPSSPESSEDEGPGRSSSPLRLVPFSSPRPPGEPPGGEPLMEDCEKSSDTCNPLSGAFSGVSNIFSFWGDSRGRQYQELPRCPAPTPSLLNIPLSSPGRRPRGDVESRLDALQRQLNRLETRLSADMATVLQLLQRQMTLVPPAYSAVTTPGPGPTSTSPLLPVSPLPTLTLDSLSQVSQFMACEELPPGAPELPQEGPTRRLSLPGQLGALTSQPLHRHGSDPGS

For this data set, the target named is hERG channel (Homo sapiens, UniProt Q12809). Conditions: LOPAC 1280 library qHTS, titration series, hERG-expressing U-2 OS cells. A general note: qHTS replaces the single test concentration by a dilution series.

The structures appear in SMILES notation. Counter-ions that a name gives are not always drawn.

For `Fc1ccc(C(OCCN2CCN(CCCc3ccccc3)CC2)c2ccc(F)cc2)cc1` [GBR-12909 dihydrochloride], 220 nM corresponded to half-maximal inhibition (IC50).
